# Laboratory results reported in patent US7585997B2, “Compounds and compositions for treating dysproliferative diseases, and methods of use thereof” (Chesterford Enterprises Limited, priority 2003, dated 2009).
# Experiments:
# [1] = test system: HT-29 human colon adenocarcinoma; experiment: Cell growth inhibition, HT-29 cells; type: cell-based
# [2] = test system: BxPC3, carcinoma of pancreas; experiment: Cell growth inhibition, BxPC3 cells; type: cell-based, human
# [3] = test system: A549, carcinoma of the lung; experiment: Cell growth inhibition, A549 cells
# [4] = test system: A-431, carcinoma of the skin; experiment: Cell growth inhibition, A-431 cells; conditions: A-431, skin
# [5] = test system: MCF-7, carcinoma of the breast; experiment: Cell growth inhibition, MCF-7 cells; conditions: MCF-7, breast
# [6] = test system: LNCaP, carcinoma of the prostate; experiment: Cell growth inhibition, LNCaP cells
# [7] = test system: HCT-15 human colon adenocarcinoma; experiment: Cell growth inhibition, HCT-15 cells; conditions: HCT-15, colon
# [8] = test system: SSC-25, squamous cell carcinoma of the tongue; experiment: Cell growth inhibition, SSC-25 cells; conditions: SSC-25, tongue
# [9] = test system: MIA-Paca2, carcinoma of pancreas; experiment: Cell growth inhibition, MIA-Paca2 cells
# [10] = test system: Min (Apcmin/+) mouse model of intestinal cancer; experiment: Inhibition of gastrointestinal tumors in Min mice; conditions: 100 mg/kg/day oral gavage, 21 days
# [11] = Body weight and toxicity in wild type and Min mice; conditions: 100 mg/kg/day oral; for Body Weight, End / Body Weight, Start: mean±SD
substance,measurement,setting,value
2-(acetyloxy)benzoic acid 4-(nitromethyl)phenyl amide,IC50,"[1]; read-out: IC50, HT-29, colon, 24 hr",25 µM
4-O-[2-(3-fluoro-4-phenyl)phenyl propionyl]-4-hydroxybenzyl nitrate,IC50,"[1]; HT-29, colon, 24 hr",49 µM
same,IC50,"[1]; HT-29, colon, 48 hr",41 µM
same,IC50,"[1]; HT-29, colon, 72 hr",28 µM
same,IC50,[2]; 24 hr,25 µM
same,IC50,[2]; 48 hr,20 µM
same,IC50,[3]; 24 hr,65 µM
same,IC50,[3]; 48 hr,58 µM
same,IC50,[4]; 24 hr,48 µM
same,IC50,[4]; 48 hr,40 µM
same,IC50,[4]; 72 hr,29 µM
same,IC50,[5]; 24 hr,77 µM
same,IC50,[5]; 48 hr,59 µM
same,IC50,[6]; 24 hr,35 µM
same,IC50,[6]; 48 hr,15 µM
same,IC50,[7]; 24 hr,62 µM
same,IC50,[7]; 48 hr,35 µM
same,IC50,[7]; 72 hr,15 µM
same,IC50,[8]; 24 hr,8 µM
same,IC50,[8]; 48 hr,6 µM
same,IC50,[9]; 24 hr,72 µM
same,IC50,[9]; 48 hr,65 µM
same,"tumor size versus vehicle-treated Min mice, on inspection",[10],far smaller
same,reduction of the number of tumors,[10]; small intestine,95.6%
same,number of tumors in treated animals,"[10]; small intestine, mean±SD, N=10",1.4±2.8
same,effect on body weight of mice,[11]; 21 days,did not affect the body weight
same,gastrointestinal toxicity at necropsy,[11]; 21 days,no evidence of gastrointestinal toxicity
same,"other toxicity, examination of abdominal organs",[11]; 21 days,No other toxicity was noted
same,"Body Weight, End","[11]; Min mice, 21 days",17.3 ± 0.3 g
same,"Body Weight, Start",[11]; Min mice,15.1 ± 0.5 g
same,"Body Weight, End","[11]; Wild type mice, 21 days",16.7 ± 0.3 g
same,"Body Weight, Start",[11]; Wild type mice,14.8 ± 0.4 g

# Where two headings read alike, the source gives them in different places.
